Results: US6462016B1, “Method for screening agonist or antagonist of the maxadilan receptor participating in vasodilating action, and compound found by the method” (Shiseido Company, Ltd., priority 1995, dated 2002)

Tests used:
[1] = target: T1, maxadilan receptor in crude membrane fraction from the rat brain (Rattus norvegicus, UniProt P32215); experiment: Binding test (tissue): 125I-Max, rat brain crude membrane fraction; settings: read-out: dissociation constant (Kd)
T1 construct: Likewise, crude membrane fractions were prepared; from tissue; host or cells: rat brain, crude membrane fraction
T1 sequence (P32215 20-523): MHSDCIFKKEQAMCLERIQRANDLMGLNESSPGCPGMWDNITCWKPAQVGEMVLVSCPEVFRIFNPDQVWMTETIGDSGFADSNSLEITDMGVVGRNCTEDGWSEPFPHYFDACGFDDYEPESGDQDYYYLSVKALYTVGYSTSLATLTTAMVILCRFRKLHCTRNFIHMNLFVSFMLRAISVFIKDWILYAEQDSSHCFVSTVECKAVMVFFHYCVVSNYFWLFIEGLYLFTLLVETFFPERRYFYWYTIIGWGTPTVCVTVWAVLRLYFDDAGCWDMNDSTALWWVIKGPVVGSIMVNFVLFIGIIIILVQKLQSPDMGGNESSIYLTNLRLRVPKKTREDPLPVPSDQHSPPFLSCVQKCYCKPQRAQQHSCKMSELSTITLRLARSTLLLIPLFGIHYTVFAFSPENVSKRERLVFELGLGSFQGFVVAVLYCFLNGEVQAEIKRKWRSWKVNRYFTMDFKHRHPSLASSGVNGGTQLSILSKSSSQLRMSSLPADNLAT
Experimental: (§1) Likewise, crude membrane fractions were prepared, respectively, from the brain, liver, pancreas, spleen, aorta and kidney of a rabbit, and the brains of a rat, a mouse, cattle and a human being.
(§2) Purified maxadilan (see SEQ ID NO: 2) was labeled with ^125I according to a usual method using chloramine T, and fractionated by HPLC (high performance liquid chromatography : SHIMADZU LC-6A) to obtain a labeled compound having a specific activity of 2,000 Ci/mmol.
(§3) 70 pM of radioactive maxadilan (^125I-Max) was incubated at 4° C. for 2 hours together with 400 μg/ml of each crude membrane fraction in the absence or presence of 1 μM of maxadilan. After completion of the reaction, ^125I-Max bound to the membrane was separated by subjecting the resultant incubation matter to suction filtration using a GF/C glass filter (Whatman GF/C), and the radioactivity of the glass filter after being dried was measured by a γ-counter.
(§4) As is the case of FIGS. 3 and 4, the dissociation constant (Kd) and the maximum binding amount (Bmax) on each tissue were calculated, from a Scatchard plot and saturation curve prepared using each tissue.

[2] = target: T2, maxadilan receptor in crude membrane fraction from the mouse brain (Mus musculus, UniProt P70205); experiment: Binding test (tissue): 125I-Max, mouse brain crude membrane fraction; settings: read-out: dissociation constant (Kd)
T2 construct: Likewise, crude membrane fractions were prepared; from tissue; host or cells: mouse brain, crude membrane fraction
T2 sequence (P70205 21-496): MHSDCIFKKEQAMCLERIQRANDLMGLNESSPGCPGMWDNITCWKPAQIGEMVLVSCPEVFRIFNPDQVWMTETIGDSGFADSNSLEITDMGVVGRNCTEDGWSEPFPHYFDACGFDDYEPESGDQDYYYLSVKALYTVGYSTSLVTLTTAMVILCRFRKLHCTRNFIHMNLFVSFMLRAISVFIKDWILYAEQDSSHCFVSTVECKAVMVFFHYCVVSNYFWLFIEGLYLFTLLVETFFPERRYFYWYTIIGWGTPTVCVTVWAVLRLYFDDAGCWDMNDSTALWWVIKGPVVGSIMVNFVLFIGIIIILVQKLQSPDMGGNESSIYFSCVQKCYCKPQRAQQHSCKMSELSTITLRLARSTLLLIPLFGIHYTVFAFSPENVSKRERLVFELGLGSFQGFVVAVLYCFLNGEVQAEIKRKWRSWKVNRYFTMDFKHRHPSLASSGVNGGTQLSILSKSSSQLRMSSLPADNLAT
Experimental: as §1, §2, §3, §4

[3] = target: maxadilan receptor in crude membrane fraction from the rabbit brain; experiment: Binding test (tissue): 125I-Max saturation / Scatchard, rabbit brain crude membrane fraction; settings: from Scatchard plot and saturation curve, read-out: dissociation constant (Kd)
Experimental: The brain of a rabbit (excluding the cerebellum) was homogenized in the following buffer using Polytron PT 3000 (produced by […]).
50 mM Tris-HCl (pH 7.6), 0.32 M sucrose, 5 mM EDTA (ethylenediaminetetraacetic acid), 1 μg/ml leupeptin, 1 μg/ml pepstatin A, 2 μg/ml bacitracin and 10 μg/ml PMSF (phenylmethylsulfonyl fluoride)
The homogenate was low speed centrifuged (1,000×g), the resultant precipitate was homogenized again, the resultant supernatants were combined and high speed centrifuged (30,000×g), and the precipitate was named a crude membrane fraction. […]
as §3, §4

[4] = target: T3, maxadilan receptor in crude membrane fraction from the cattle brain (Bos taurus, UniProt Q29627); experiment: Binding test (tissue): 125I-Max, cattle brain crude membrane fraction; settings: read-out: dissociation constant (Kd)
T3 construct: Likewise, crude membrane fractions were prepared; from tissue; host or cells: cattle brain, crude membrane fraction
T3 sequence (Q29627 38-513): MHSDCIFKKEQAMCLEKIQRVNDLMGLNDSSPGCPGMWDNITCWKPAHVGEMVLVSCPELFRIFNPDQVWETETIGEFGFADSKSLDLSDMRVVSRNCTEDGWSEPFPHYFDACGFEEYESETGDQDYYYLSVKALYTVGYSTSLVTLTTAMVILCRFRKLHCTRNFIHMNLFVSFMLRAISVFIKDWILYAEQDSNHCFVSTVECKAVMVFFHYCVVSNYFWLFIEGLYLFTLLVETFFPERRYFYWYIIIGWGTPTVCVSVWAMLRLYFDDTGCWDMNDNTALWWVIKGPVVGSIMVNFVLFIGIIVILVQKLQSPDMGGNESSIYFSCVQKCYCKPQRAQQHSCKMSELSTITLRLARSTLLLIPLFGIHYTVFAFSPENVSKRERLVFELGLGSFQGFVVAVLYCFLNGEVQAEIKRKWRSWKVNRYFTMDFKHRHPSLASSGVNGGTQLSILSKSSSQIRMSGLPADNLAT
Experimental: as §1, §2, §3, §4

## maxadilan
[1]
  Kd: 0.161 nM
[2]
  Kd: 0.068 nM
[3]
  Kd: 0.066 nM
[4]
  Kd: 0.066 nM
